# Earlier results in article PMC5218874.
# pKd: −log10 of the molar value.
# Target: Adenylate cyclase toxin (ACT) AC domain (Bordetella pertussis) (UniProt P0DKX7)
substance,measurement,value
Calmodulin (from UniProt P0DP23),pKd,8.70
